The values that follow come from paper PMC9785231, “Synthesis and Pharmacological Evaluation of Enantiopure N-Substituted Ortho-c Oxide-Bridged 5-Phenylmorphans” (Molecules, 2022).

The nature of this data set: Microsomal metabolic stability, human liver microsomes. Particulars: HLM 0.5.

In turn, `C[C@]12CC[C@H]3[C@@H](CCC4=CC(=O)CC[C@@]43C)[C@@H]1CC[C@@H]2O` [Testosterone] registered a T1/2 of 12.9 min.
